What was measured:
[1] = target: T1, Tyrosine-protein kinase SYK (Homo sapiens, UniProt P43405); test: Inhibition of SYK (unknown origin) in macrophages assessed as reduction in immune complex-stimulated TNFalpha secretion
[2] = target: T1, Tyrosine-protein kinase SYK; test: Inhibition of SYK (unknown origin) in B cells assessed as reduction in alpha IgM-stimulated B cells activation by measuring reduction in CD69 expression
[3] = target: T1, Tyrosine-protein kinase SYK; test: Inhibition of SYK (unknown origin) in B cells assessed as reduction in alpha IgM-stimulated AKT phosphorylation at S473 residue
[4] = target: T1, Tyrosine-protein kinase SYK; test: Inhibition of SYK in human whole blood assessed as reduction in anti-FCepsilonR1 mAb-induced basophil activation by measuring decrease in CD63 surface expression incubated for 60 mins followed by anti-FCepsilonR1 mAb stimulation for 20 mins by flow cytometry analysis; assay type: tissue-based
[5] = target: T1, Tyrosine-protein kinase SYK; test: Inhibition of SYK (unknown origin) in B cells assessed as reduction in alpha IgM-stimulated BTK phosphorylation at Y223 residue
[6] = target: T1, Tyrosine-protein kinase SYK; test: Inhibition of SYK in human Ramos cells assessed as reduction in antihuman IgM F(ab)2-induced phosphorylation of BLNK at Y96 residue preincubated for 1 hr followed by antihuman IgM F(ab)2 stimulation for 5 mins by MSD high bind plate assay; assay type: cell-based
[7] = target: T1, Tyrosine-protein kinase SYK; test: Inhibition of SYK (unknown origin) in B cells assessed as reduction in alpha IgM-stimulated ERK phosphorylation at T202/Y204 residue
[8] = target: T1, Tyrosine-protein kinase SYK; test: Inhibition of SYK (unknown origin) in B cells assessed as reduction in alpha IgM-stimulated B cells activation by measuring reduction in CD86 expression
[9] = target: T1, Tyrosine-protein kinase SYK; test: Inhibition of SYK (unknown origin) in macrophages assessed as reduction in immune complex-stimulated IL-1 beta secretion
[10] = target: T1, Tyrosine-protein kinase SYK; test: Inhibition of SYK (unknown origin) in macrophages assessed as reduction in immune complex-stimulated IL-6 secretion
[11] = target: T1, Tyrosine-protein kinase SYK; test: Inhibition of SYK (unknown origin) in B cells assessed as reduction in alpha IgM-stimulated MEK phosphorylation at S217/S221 residue

Work on `Nc1cncc(-c2cn3ccnc3c(Nc3ccc(N4CCN(C5COC5)CC4)cc3)n2)n1` [LANRAPLENIB] yielded an EC50 [1] of 180 nM, an EC50 [2] of 112 nM and an EC50 [3] of 34 nM. For the same compound, the EC50 [4] was 73 to 76 nM, the EC50 [5] was 26 nM and the EC50 [6] was 24 nM. It also gave an EC50 [7] of 37 nM, an EC50 [8] of 164 nM and an EC50 [9] of 90 nM. It also gave an EC50 [10] of 700 nM and an EC50 [11] of 51 nM.
